{"source": "patent US8529964B1", "about": "“Method and composition for suppression and control of citrus canker and other plant diseases” (priority 2010, dated 2013)", "origin": "cited, not measured here", "data": [{"substance": "copper fluoride", "values": [{"measurement": "water solubility (in words)", "value": "slightly water soluble"}]}]}
